We go through eight molecules from patent EP4831184A1, “SALT OF NITROGEN HETEROARYL COMPOUND, CRYSTAL FORM OF SAID SALT, PREPARATION METHOD THEREFOR, AND USE THEREOF” (dated 2026).

Structures can show the parent of a compound that is named as a salt.

A short description of data set [1]: Salt formation / salt crystal form screening with acids and solvents. The source says: Following the procedures in Example 1 of the present application, the compound represented by formula (I) was mixed with the acids and solvents shown in the table below, yet no crystal forms of salts were obtained.
Data set [2] in a line: Pharmacokinetic experiment, single oral gavage. Particulars: Beagle dogs, Vehicle Solutol HS 15 and 20% HP-β-CD. The text has this:
Number of animals: 6 Beagle dogs per group, half male and half female.
Grouping method: Dogs were randomly grouped by sex based on body weight.
A sample of the crystal form B of the compound represented by formula (I) was taken and added to a mixed solution of Solutol HS 15 and 20% HP-β-CD, and the resulting mixture was well mixed by ultrasonication and vortexing to give the desired reagent. Post-preparation storage condition and shelf life: the prepared reagent could be temporarily stored in a refrigerator at 2-8 °C for 3 h.
A sample of the crystal form I of the p-toluenesulfonate of the compound represented by formula (I) was taken and added to a mixed solution of Solutol HS 15 and 20% HP-β-CD, and the resulting mixture was well mixed by ultrasonication and vortexing to give the desired reagent.
A sample of the crystal form I of the p-toluenesulfonate of the compound represented by formula (I) was taken and added to a mixed solution of SBE-β-CD and 50 mM sodium acetate (pH 4.61), and the resulting mixture was well mixed by ultrasonication and vortexing to give the desired reagent. Post-preparation storage condition and shelf life: the prepared reagent could be temporarily stored in a refrigerator at 2-8 °C for 3 h.
Administration dose: 10 mg/kg, calculated based on the content of the compound represented by formula (I).
Administration concentration: 2 mg/mL.
Administration volume: 5 mL/kg.
Administration frequency: single administration.
Administration route: oral gavage.
Sampling time points: before administration, and 15 min (± 1 min), 30 min (± 1 min), 1 h (± 2 min), 2 h (± 2 min), 4 h (± 5 min), 8 h (± 5 min), and 24 h (± 20 min) after administration.
Sampling animals: all surviving dogs in each group.
Sampling site: forelimb vein or other suitable veins.
Sampling amount: about 0.5 mL, with heparin sodium as an anticoagulant.
Blood sample treatment: The collected blood samples were each added into a centrifuge tube containing the anticoagulant and mixed well with the anticoagulant by gentle shaking. The whole blood samples were placed in an ice box protected from light before centrifugation. They were then centrifuged at 1800 rpm for 10 min at 2-8 °C within 2 h to separate plasma. The plasma was divided into 2 aliquots and stored at -66 °C or below until analysis.
Data processing and analysis: Pharmacokinetic parameters including Cmax, Tmax, AUClast, and AUC0-∞ were calculated using a non-compartmental model.
Tmax and Cmax were obtained from measured values.
AUC0-t was calculated using the linear trapezoidal method, where t represents the time of the last quantifiable plasma concentration; AUC0−∞ = AUC0−t + Ct /λz , [formula] where Ct represents the plasma concentration at the last time point with a quantifiable concentration, and λz represents the terminal elimination rate constant.

The nature of data set [3]: Saturation solubility tests in water and at different pH values. The source says: Samples of the prepared crystal form A of the compound represented by formula (I), the prepared crystal form B of the compound represented by formula (I), the crystal form I of the p-toluenesulfonate of the compound represented by formula (I) obtained according to Example 1, and the crystal form I of the hydrochloride of the compound represented by formula (I) obtained according to Example 2 were subjected to saturation solubility tests in water and at different pH values. […] Table 7. Solubility data (mg/mL) under different conditions

Data set [4] is described as follows: Crystal form stability test (light exposure, high temperature, high humidity; open containers). Particulars: for Crystal form after standing, High humidity / Crystal form after standing, 60 °C / Crystal form after standing, Light exposure: open container, 30 days; for Crystal form after standing, High humidity: 25 °C, RH 90% ± 5%; for Crystal form after standing, 60 °C: high temperature 60 °C; for Crystal form after standing, Light exposure: light exposure 5000 Lux ± 500 Lux. The procedure: (§1) Samples of the crystal form A of the compound represented by formula (I), the crystal form B of the compound represented by formula (I), the crystal form I of the p-toluenesulfonate of the compound represented by formula (I), and the crystal form I of the hydrochloride of the compound represented by formula (I) were separately spread out and left to stand in open containers, and subjected to 10-day and 30-day stability tests under light exposure (5000 Lux ± 500 Lux), high temperature (60 °C), and high humidity (25 °C, RH 90% ± 5%) conditions to investigate the stability of the crystal forms. Table 5. Comparison of stability data of crystal forms after standing for 30 days under different conditions

The nature of data set [5]: Stability of related substances (light exposure, high temperature, high humidity; open containers). To be noted: open container; for stability of related substances, High humidity: high humidity 25 °C, RH 90% ± 5%; for stability of related substances, 60 °C: high temperature 60 °C; for stability of related substances, Light exposure: light exposure 5000 Lux ± 500 Lux. The procedure:
as §1, with “related substances.” for “the crystal forms.”, “6.” for “5.”, “related substances” for “crystal forms after standing for 30 days”

The mark [6] stands for this setting: Solvent Acetone, Acid/base (mol/mol) 1.1.

For `O=P(O)(O)O`, the “Results (salt formation of compound represented by formula (I) with acid)” value (“Results” for short) in data set [1] (Solvent Ethanol, Acid/base (mol/mol) 1.1) was “The obtained crystal form product exhibited high hygroscopicity”.
For the molecule `C[C@H](O)C(=O)O`, in data set [1] (setting [6]), the “Results” value was “The crystal form A of the compound represented by formula (I) was obtained, and no salt was formed”.
For the molecule `O=S(=O)(O)O`, the “Results” value in data set [1] (setting [6]) was “The obtained crystal form product exhibited high hygroscopicity”; in data set [1] (Solvent Ethanol, Acid/base (mol/mol) 0.5), “The crystal form A of the compound represented by formula (I) was obtained, and no salt was formed”.
As a reminder, the Cmax is the maximum level reached in the sampled fluid or tissue. By Tmax is commonly meant the time from dosing to the highest level. The term Solubility denotes how much of the substance goes into solution per volume. Low values mean little dissolved substance, high ones much dissolved substance. `CN(C)Cc1ccc(-c2cnc(NCc3c(F)ccc4c3CCO4)n3cnnc23)c2ncnn12` [Crystal form B of compound represented by formula (I)]: in data set [2], the Cmax came out at 378 ± 359 ng/mL and the Tmax is 1.3 ± 1.3 h. Besides, in data set [3] (Water, saturation solubility), the Solubility came to 10 µg/mL. The Solubility in data set [3] (pH 1.0, saturation solubility) is 290 µg/mL. In data set [3] (pH 4.5, saturation solubility), this molecule registered a Solubility of 1850 µg/mL. In data set [3] (pH 6.8, saturation solubility), this molecule showed a Solubility of 20 µg/mL. In data set [4], the “Crystal form after standing, High humidity” value (from here on “Crystal form … High humidity”) is listed as “Crystal form B”; the “Crystal form after standing, 60 °C” value was “Crystal form B”; the “Crystal form after standing, Light exposure” value (“Crystal form … Light exposure” for short) is “Crystal form B”. In addition, in data set [5] (0 days), the “stability of related substances, High humidity” value (from here on “stability … High humidity”) is listed as 99.85%; the “stability of related substances, 60 °C” value turned out to be 99.85%; the “stability of related substances, Light exposure” value (“stability … Light exposure” below) is 99.85%. In data set [5] (10 days), the “stability … High humidity” value is 99.85%; the “stability of related substances, 60 °C” value is on record as 99.85%; the “stability … Light exposure” value is 98.54%. Moreover, in data set [5] (30 days), the “stability … High humidity” value is on record as 99.85%; the “stability of related substances, 60 °C” value is 99.78%; the “stability … Light exposure” value worked out at 95.66%.
For the molecule `CN(C)Cc1ccc(-c2cnc(NCc3c(F)ccc4c3CCO4)n3cnnc23)c2ncnn12` [Crystal form A of compound represented by formula (I)], the Solubility in data set [3] (Water, saturation solubility) is 20 µg/mL; in data set [3] (pH 1.0, saturation solubility), 290 µg/mL; in data set [3] (pH 4.5, saturation solubility), 1320 µg/mL; in data set [3] (pH 6.8, saturation solubility), 10 µg/mL. The crystal form stability entry in data set [4] (high humidity conditions) is “poor stability”. Further, in data set [4], the “Crystal form … High humidity” value was “Mixed crystal”. In addition, the “Crystal form after standing, 60 °C” value in data set [4] was “Crystal form A”. Besides, in data set [4], the “Crystal form … Light exposure” value is listed as “Crystal form A”. The entries for the “stability … High humidity” value in data set [5] (0 days), in data set [5] (10 days) and in data set [5] (30 days) were 99.85%, 99.83% and 99.84%, respectively. In addition, the entries for the “stability of related substances, 60 °C” value in data set [5] (0 days), in data set [5] (10 days) and in data set [5] (30 days) were 99.85%, 99.82% and 99.70%, respectively. Besides, the “stability … Light exposure” value in data set [5] (0 days) is listed as 99.85%; in data set [5] (10 days), 99.11%; in data set [5] (30 days), 98.16%.
For the molecule `CN(C)Cc1ccc(-c2cnc(NCc3c(F)ccc4c3CCO4)n3cnnc23)c2ncnn12` [Crystal form I of hydrochloride of compound represented by f], in data set [4], the “Crystal form … High humidity” value was “Crystal form I of hydrochloride”; the “Crystal form after standing, 60 °C” value is recorded as “Crystal form I of hydrochloride”; the “Crystal form … Light exposure” value is listed as “Crystal form I of hydrochloride”. In addition, in data set [5] (0 days), the “stability … High humidity” value is 99.84%; the “stability of related substances, 60 °C” value was found to be 99.84%; the “stability … Light exposure” value is listed as 99.84%. In data set [5] (10 days), the “stability … High humidity” value was determined as 98.84%; the “stability of related substances, 60 °C” value is given as 99.51%; the “stability … Light exposure” value stood at 99.60%. In data set [5] (30 days), the “stability … High humidity” value is 98.80%; the “stability of related substances, 60 °C” value came out at 99.32%; the “stability … Light exposure” value is 98.61%.
For `O=C(O)CC(O)(CC(=O)O)C(=O)O`, in data set [1] (Solvent Ethanol, Acid/base (mol/mol) 2.1), the “Results” value is listed as “The obtained crystal form product was poor in crystalline state”.
Turning to `CC(=O)O`, in data set [1] (setting [6]), the “Results” value was “The crystal form A of the compound represented by formula (I) was obtained, and no salt was formed”.
